Among the targets are ALK-2; ALK-3; FCRL5; NRP1; α-CTX.
What all share (assay): SPR
In assay [1] the target is Platelet-derived growth factor receptor ɑ (PDGFRɑ), biotinylated receptor ectodomain (UniProt P16234).

Protein sequences, listed by entry. Tags and fused reporters are not part of them. Residues count along the entry.
UniProt P16234, 24-528: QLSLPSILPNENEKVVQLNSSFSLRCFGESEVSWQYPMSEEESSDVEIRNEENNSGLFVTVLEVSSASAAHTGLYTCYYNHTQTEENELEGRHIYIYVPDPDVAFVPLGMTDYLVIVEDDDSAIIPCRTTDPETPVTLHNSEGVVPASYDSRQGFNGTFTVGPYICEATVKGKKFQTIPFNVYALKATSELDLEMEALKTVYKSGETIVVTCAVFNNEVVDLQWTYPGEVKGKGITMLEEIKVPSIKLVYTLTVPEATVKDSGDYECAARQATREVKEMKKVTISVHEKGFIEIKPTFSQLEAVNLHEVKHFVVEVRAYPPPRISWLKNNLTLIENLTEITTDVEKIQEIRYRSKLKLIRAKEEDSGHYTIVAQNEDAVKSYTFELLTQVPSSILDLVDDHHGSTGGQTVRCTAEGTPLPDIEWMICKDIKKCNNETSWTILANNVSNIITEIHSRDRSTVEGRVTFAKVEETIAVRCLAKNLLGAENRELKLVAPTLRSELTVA

In the assay with ALK-2, ALK-2bp yielded a dissociation constant (Kd) of 164 nM. That is a sub-micromolar value.
On to ALK-3bp, for which, in the assay with ALK-3, the Kd stood at 0.528 nM.
As to FCRL5bp, the Kd in the assay with FCRL5 amounted to 82 nM.
NRP1bp returned a Kd in the assay with NRP1 of 84 nM.
In assay [1], PDGFRαbp-7LBF showed a Kd of 4 nM.
In the assay with α-CTX, α-CTXbp came in with a Kd of 1.9 nM. This counts as single-digit nanomolar.

Values taken from article doi:10.1101/2024.10.11.617496.
